For the data set, the system named is EBV. The data set can be described thus: Anti-EBV assay: reduction of EBV DNA synthesis (qPCR) in TPA-induced P3HR-1 cells. The conditions noted are these: selectivity index = CC50/EC50, P3HR-1 cells. How it is done:
The antiviral potency of all synthesized nucleosides was evaluated by in-vitro cell-based assays. P3HR-1 cells were seeded in 24-well plates at a density of 1 × 10^6 cells/mL. EBV replication was induced by adding 25 ng/mL 12-O-tetradecanoylphorbol 13-acetate (TPA) (Sigma–Aldrich, Bornem, Belgium) to the growing cells. The next day, cells were washed and resuspended in fresh medium in the presence or absence of various concentrations of synthesized nucleosides (12–19). Ganciclovir (GCV) was used as antiviral control. On day 5 post-induction, total cellular DNA was extracted (QIAamp DNA kit; Qiagen Benelux B.V, Venlo, The Netherlands), and viral DNA was quantified by quantitative PCR (qPCR) using an ABI Prism 7500 Sequence Detection System (Applied Biosystems, Foster City, CA). Thermocycling conditions for all qPCRs were done following the manufacturer’s instructions. […] The results were obtained as a means from at least three independent experiments. The selectivity index of the compound was determined by the ratio of CC50/EC50. […]
Real-time PCR detection of viral DNA: EBV DNA was extracted with a QIAGEN Dneasy Blood and Tissue Kit. […] DNA concentration (ng/μL) was determined with a Nanophotometer (IMPLEN). The Real -time PCR was performed using QuantiTect Sybr Green PCR Kit. […]
A general note: In qPCR the cycle at which signal appears reflects the starting amount.

Turning to `Nc1ncnc2c1c(F)cn2[C@H]1CO[C@@H](CO)O1` [Compound 13], the “SI (CC50/EC50), EBV” value is on record as 59.

The values above are taken from PMC12434534, “Synthesis and Antiviral Evaluation of Unexplored Dioxolane-Derived 7‑Deazapurine Nucleoside Analogues against Epstein–Barr Virus (EBV)” (ACS Medicinal Chemistry Letters, 2025).
